# Tested on: HCC827 implanted tumors
# Experiment: Subcutaneous HCC827 xenograft model, groups 3a-3c, o.p.
# Conditions: for Body weight change (%): HCC827 tumor-bearing mice, NSL-8 70 mpk, Tarceva 20 mpk o.p.
# [1] = HCC827 model, peripheral blood at end-point
smiles,measurement,setting,value
C#Cc1cccc(Nc2ncnc3cc(OCCOC)c(OCCOC)cc23)c1 [Erlotinib],Body weight change (%),Day 3,0.2%
same,Body weight change (%),Day 7,1.3%
same,Body weight change (%),Day 10,0.6%
same,Body weight change (%),Day 14,−0.2%
same,counts of red blood cells,[1],decrease
same,total white blood cells and platelets counted versus vehicle,[1],no significant difference
same,"serum levels of BUN, ALT, and AST among treatment groups","HCC827 model, upon completion of the experiments",no significant difference
